According to patent US7579432B2, “Cyclic peptides as G-protein-coupled receptor antagonists” (Promics Pty Limited, priority 2001, dated 2009):

Assays:
[1] = target: T1, C5a receptor on human polymorphonuclear leukocytes (C5a-stimulated human PMNs) (Homo sapiens, UniProt P21730); experiment: Myeloperoxidase release assay for antagonist activity; format: cell-based; settings: for IC50: myeloperoxidase release from human PMNs, C5a 100 nM; for antagonist potency compared with compound 1: structure-activity discussion
T1 construct: Cells were isolated as previously described (Sanderson et al, 1995) and incubated with cytochalasin B; endogenous in cells; host or cells: isolated human polymorphonuclear leukocytes (PMNs)
T1 sequence (P21730 1-350): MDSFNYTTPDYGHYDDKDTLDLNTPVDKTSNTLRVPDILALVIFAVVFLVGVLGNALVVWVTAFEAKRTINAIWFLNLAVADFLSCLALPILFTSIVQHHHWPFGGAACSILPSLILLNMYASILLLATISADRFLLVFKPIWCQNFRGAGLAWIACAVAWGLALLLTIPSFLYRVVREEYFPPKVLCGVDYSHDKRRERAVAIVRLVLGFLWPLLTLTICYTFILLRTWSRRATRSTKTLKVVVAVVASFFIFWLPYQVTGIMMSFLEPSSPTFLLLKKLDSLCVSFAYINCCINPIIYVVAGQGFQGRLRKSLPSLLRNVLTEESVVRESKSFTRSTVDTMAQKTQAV

[2] = target: T2, C5a receptor on human polymorphonuclear leukocytes (Homo sapiens, UniProt P21730); experiment: biochemical; settings: Binding IC50, human PMNs, 4° C., 60 min
T2 sequence (P21730 1-350): T1 sequence (P21730 1-350)

[3] = target: T2, C5a receptor on human polymorphonuclear leukocytes; settings: structure-activity discussion

| SMILES | IC50 [1] [nM] | IC50 [2] [nM] | antagonist potency compared with compound 1 [1] | receptor binding affinity compared with compound 1 [3] |
| --- | --- | --- | --- | --- |
| CC(=O)N[C@@H](Cc1ccccc1)C(=O)N[C@H]1CCCNC(=O)[C@H](CCCNC(=N)N)NC(=O)[C@H](CC2CCCCC2)NC(=O)[C@@H](CC2CCCCC2)NC(=O)[C@@H]2CCCN2C1=O [Compound 50, AcF[OP-dCha-Cha-R]] (Ac-F[Orn]P[dCha][Cha]R; lactam 2-C (inferred)) | 4500 | 11900 | – | – |
| CC(=O)N[C@@H](Cc1ccccc1)C(=O)N[C@H]1CCCNC(=O)[C@H](CCCNC(=N)N)NC(=O)[C@H](CC(C)C)NC(=O)[C@@H](CC2CCCCC2)NC(=O)[C@@H]2CCCN2C1=O [Compound 51, AcF[OP-dCha-LR]] (Ac-F[Orn]P[dCha]LR; lactam 2-C) | 3000 | 18900 | – | – |
| CC(=O)N[C@@H](Cc1ccccc1)C(=O)N[C@H]1CCCNC(=O)[C@H](CCCNC(=N)N)NC(=O)[C@@H]2Cc3ccccc3CN2C(=O)[C@@H](CC2CCCCC2)NC(=O)[C@@H]2CCCN2C1=O [Compound 56, AcF[OPdCha-Tic-R]] (Ac-F[Orn]P[dCha][Tic]R; lactam 2-C) | 10900 | 3730 | – | – |
| CC(=O)N[C@@H](Cc1ccccc1)C(=O)N[C@H]1CCCNC(=O)[C@H](CCCNC(=N)N)NC(=O)[C@H](Cc2ccccc2)NC(=O)[C@@H](CC2CCCCC2)NC(=O)[C@@H]2CCCN2C1=O [Compound 60, AcF-[OPdChaFR]] (Ac-F[Orn]P[dCha]FR; lactam 2-C (inferred)) | 32 | 250 | little change in antagonist potency | – |
| CC(=O)N[C@@H](Cc1ccccc1)C(=O)N[C@H]1CCCNC(=O)[C@H](CCCNC(=N)N)NC(=O)[C@H](Cc2c[nH]c3ccccc23)NC(=O)[C@@H](Cc2ccccc2)N(C)C(=O)[C@@H]2CCCN2C1=O [Compound 65] | – | – | tends to reduce | tends to reduce |

Other lines, results leading:

| IC50 [1] [nM] | IC50 [2] [nM] | antagonist potency compared with compound 1 [1] | receptor binding affinity compared with compound 1 [3] | SMILES |
| --- | --- | --- | --- | --- |
| 46.6 | 710 | – | – | CC(=O)N[C@@H](Cc1ccccc1)C(=O)N[C@H]1CCCNC(=O)[C@H](CCCNC(=N)N)NC(=O)[C@H](Cc2cccc3ccccc23)NC(=O)[C@@H](CC2CCCCC2)NC(=O)[C@@H]2CCCN2C1=O [Compound 52, AcF[OP-dCha-1Nal-R]] (Ac-F[Orn]P[dCha][1Nal]R; lactam 2-C) |
| 172 | 280 | – | – | CC(=O)N[C@@H](Cc1ccccc1)C(=O)N[C@H]1CCCNC(=O)[C@H](CCCNC(=N)N)NC(=O)[C@H](Cc2csc3ccccc23)NC(=O)[C@@H](CC2CCCCC2)NC(=O)[C@@H]2CCCN2C1=O [Compound 58, AcF[OP-dCha-Bta-R]] (Ac-F[Orn]P[dCha][Bta]R; lactam 2-C) |

Bridge positions count the residues as written; N and C are the ends. Square brackets hold non-standard residues; d marks the D form. Peptide text beside a SMILES is read from it. 1Nal = N[C@@H](Cc1cccc2ccccc12)C(=O)O; Bta = N[C@@H](Cc1csc2ccccc12)C(=O)O; Tic = O=C(O)[C@@H]1Cc2ccccc2CN1; Cha = N[C@@H](CC1CCCCC1)C(=O)O; dCha = N[C@H](CC1CCCCC1)C(=O)O; Orn = NCCC[C@H](N)C(=O)O
